The text below walks through data of patent US20260356830A1, “COMPOUNDS FOR MODULATING RET PROTEIN” (Bristol-Myers Squibb Company, priority 2022, published 2026).

By UniProt entry, the sequences of proteins in these tests, tags left out.
UniProt P07949, whole entry, looked up: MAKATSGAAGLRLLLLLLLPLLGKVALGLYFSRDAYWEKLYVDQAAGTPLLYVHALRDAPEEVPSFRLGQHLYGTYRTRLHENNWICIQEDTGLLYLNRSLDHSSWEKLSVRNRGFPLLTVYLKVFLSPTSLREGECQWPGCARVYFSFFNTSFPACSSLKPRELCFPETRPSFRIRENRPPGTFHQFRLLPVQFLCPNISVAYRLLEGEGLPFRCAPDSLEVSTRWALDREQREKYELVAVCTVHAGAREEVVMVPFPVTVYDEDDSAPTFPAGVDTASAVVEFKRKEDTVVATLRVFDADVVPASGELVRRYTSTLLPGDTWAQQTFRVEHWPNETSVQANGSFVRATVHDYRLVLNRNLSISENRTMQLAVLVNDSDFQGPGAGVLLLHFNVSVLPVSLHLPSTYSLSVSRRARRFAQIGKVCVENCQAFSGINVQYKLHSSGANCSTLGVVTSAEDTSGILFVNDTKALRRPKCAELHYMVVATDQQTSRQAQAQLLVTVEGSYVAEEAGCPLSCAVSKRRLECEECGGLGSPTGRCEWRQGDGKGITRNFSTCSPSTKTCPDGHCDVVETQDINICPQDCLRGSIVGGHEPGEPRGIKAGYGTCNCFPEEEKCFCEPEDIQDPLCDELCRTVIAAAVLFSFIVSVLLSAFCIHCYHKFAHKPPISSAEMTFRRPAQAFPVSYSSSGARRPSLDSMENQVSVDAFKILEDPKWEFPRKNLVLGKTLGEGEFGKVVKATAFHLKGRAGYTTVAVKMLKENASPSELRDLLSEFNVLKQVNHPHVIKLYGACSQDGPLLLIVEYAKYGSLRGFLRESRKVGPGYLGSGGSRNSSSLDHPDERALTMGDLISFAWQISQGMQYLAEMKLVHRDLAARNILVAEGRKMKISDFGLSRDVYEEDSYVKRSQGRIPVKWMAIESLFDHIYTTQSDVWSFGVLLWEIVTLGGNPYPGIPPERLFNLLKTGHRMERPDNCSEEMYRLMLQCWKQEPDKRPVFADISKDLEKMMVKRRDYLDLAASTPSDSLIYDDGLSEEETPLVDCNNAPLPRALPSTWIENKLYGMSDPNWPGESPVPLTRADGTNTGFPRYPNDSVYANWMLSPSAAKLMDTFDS
UniProt Q16204, whole entry, looked up: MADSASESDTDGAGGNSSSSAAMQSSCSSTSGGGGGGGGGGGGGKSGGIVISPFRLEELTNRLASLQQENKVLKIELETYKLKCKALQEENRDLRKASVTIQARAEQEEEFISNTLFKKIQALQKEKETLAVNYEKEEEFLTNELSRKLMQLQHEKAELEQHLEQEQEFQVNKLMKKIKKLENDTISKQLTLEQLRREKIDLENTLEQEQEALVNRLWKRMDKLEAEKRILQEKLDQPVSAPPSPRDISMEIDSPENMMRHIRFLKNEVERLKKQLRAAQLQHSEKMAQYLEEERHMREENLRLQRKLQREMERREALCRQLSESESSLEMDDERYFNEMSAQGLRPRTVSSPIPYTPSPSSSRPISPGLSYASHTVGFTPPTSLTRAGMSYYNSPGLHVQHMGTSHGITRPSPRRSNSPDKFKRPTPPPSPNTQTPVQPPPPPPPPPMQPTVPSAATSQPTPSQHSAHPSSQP
UniProt Q96SW2, whole entry, looked up: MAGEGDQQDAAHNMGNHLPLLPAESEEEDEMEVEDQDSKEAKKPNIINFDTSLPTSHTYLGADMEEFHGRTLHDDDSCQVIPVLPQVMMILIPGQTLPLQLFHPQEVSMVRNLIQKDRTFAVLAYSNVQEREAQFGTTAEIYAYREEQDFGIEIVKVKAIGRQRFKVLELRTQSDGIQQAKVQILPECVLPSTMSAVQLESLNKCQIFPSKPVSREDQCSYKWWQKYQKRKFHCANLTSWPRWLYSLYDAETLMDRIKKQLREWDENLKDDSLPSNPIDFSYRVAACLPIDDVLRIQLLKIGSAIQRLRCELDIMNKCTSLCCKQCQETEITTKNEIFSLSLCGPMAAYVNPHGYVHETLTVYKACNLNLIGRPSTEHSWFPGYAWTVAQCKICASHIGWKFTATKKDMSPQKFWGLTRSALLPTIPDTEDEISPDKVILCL

Molecules are shown by their SMILES.

In the first assay the target is CCDC6-RET (Homo sapiens, UniProt P07949+Q16204+Q96SW2). Kind of assay: Cellular RET degradation, AlphaLISA, TPC-1 cell line. The format is cell-based. The note with it: maximum degradation, 24 hrs.
Take `CCOc1cc(-c2ccc(N3CCC(CN4CCC5(CCC(CC(=O)N6CCC(c7ccc8c(c7)C(=O)N(C7CCC(=O)NC7=O)C8)CC6)CC5)CC4)(NC(=O)c4cc(F)ccc4F)CC3)nc2)c2c(C#N)cnn2c1` (stereo not drawn): the “Cell Density TPC-1/CCDC6-RET Ymax %” value is recorded as “** (Y>90%)”.
On the same count and under the same terms, the same measure for `CCOc1cc(-c2ccc(N3CCC(CN(C(=O)CCCCCCN4CCC(c5ccc6c(c5)CN(C5CCC(=O)NC5=O)C6=O)CC4)C(C)C)(NC(=O)c4cc(F)ccc4F)CC3)nc2)c2c(C#N)cnn2c1` (stereo not drawn): “* (60%<Y≤90%)”.
Still for that read-out and setting: the same measure for `CCOc1cc(-c2ccc(N3CCC(CN4CCN(C(=O)CCCCCCN5CCN(c6ccc7c(c6)CN(C6CCC(=O)NC6=O)C7=O)CC5)CC4)(NC(=O)C4CC4)CC3)nc2)c2c(C#N)cnn2c1` (stereo not drawn): “** (Y>90%)”.

The same assay, now with this note: read-out: Cell Density TPC-1/CCDC6-RET DC50, half-maximal degradation concentration, 24 hrs.
Turning to `CCOc1cc(-c2ccc(N3CCC(CN4CCC5(CCC(CC(=O)N6CCC(c7ccc8c(c7)C(=O)N(C7CCC(=O)NC7=O)C8)CC6)CC5)CC4)(NC(=O)c4cc(F)ccc4F)CC3)nc2)c2c(C#N)cnn2c1` (stereo not drawn), the DC50 was 10 to 100 nM.
Still for that read-out and setting: the same measure for `CCOc1cc(-c2ccc(N3CCC(CN(C(=O)CCCCCCN4CCC(c5ccc6c(c5)CN(C5CCC(=O)NC5=O)C6=O)CC4)C(C)C)(NC(=O)c4cc(F)ccc4F)CC3)nc2)c2c(C#N)cnn2c1` (stereo not drawn): 2 to 10 nM.
On the same count and under the same terms, the same measure for `CCOc1cc(-c2ccc(N3CCC(CN4CCN(C(=O)CCCCCCN5CCN(c6ccc7c(c6)CN(C6CCC(=O)NC6=O)C7=O)CC5)CC4)(NC(=O)C4CC4)CC3)nc2)c2c(C#N)cnn2c1` (stereo not drawn): 2 to 10 nM.
